The subject of this assay is Methicillin-resistant Staphylococcus aureus (MRSA). The assay is described as follows: chequerboard assay (percentage of positive control, MIC, FIC) against MRSA. It counts as cell-based. To be noted: agent alone, MRSA isolate, read-out: MIC Monotherapy (X). From the text:
FICI or fractional inhibitory concentration index is the sum of the FICs of each antimicrobial when used in combination. The FIC or fractional inhibitory concentration of an antimicrobial in a combination, is the MIC of the antimicrobial in the combination divided by the MIC of the same antimicrobial when used alone. Minimum inhibitory concentrations are defined in the art as the lowest concentration of an antimicrobial that will inhibit the visible growth of a microorganism after overnight incubation.
In the method for a 3-mer combination, one antibiotic was “fixed” as part of a backbone whilst the two other antibiotics were varied over a doubling concentration scale beginning at the MIC (×1) for the effective dose in monotherapy against the organism being tested. The ΣFIC was then calculated as shown below. In the method for a 4-mer combination, two antibiotics were “fixed” as part of a backbone whilst the two other antibiotics were varied over a doubling concentration scale beginning at the MIC (×1) for the effective dose in monotherapy against the organism being tested. […]
The bacteria were obtained from Ninewells Hospital and Medical School in Dundee, Scotland. […] The bacteria were measured for OD600 and readings of <0.25 were returned to the incubator. […]
Plates were read at OD600 in a 96-well plate reader. […]

For the compound `CC(C)(O/N=C(\C(=O)N[C@@H]1C(=O)N2C(C(=O)[O-])=C(C[n+]3ccccc3)CS[C@H]12)c1csc(N)n1)C(=O)O` [Ceftazidime], the MIC stood at 32 µg/mL.

Values taken from patent publication US20260097045A1, “ANTIMICROBIAL COMBINATIONS” (Helperby Therapeutics Limited, priority 2022, published 2026).
